Measured values reported in ChEMBL document CHEMBL1143353, “Pyrazolo[1,5-a]-1,3,5-triazine as a purine bioisostere: access to potent cyclin-dependent kinase inhibitor (R)-roscovitine analogue” (J Med Chem, 2009).

Assay: Inhibition of starfish oocytes CDK1/cyclin B
Parameters: species or system Marthasterias glacialis
Settings: oocyte

Molecule `CC(C)[C@H](CO)Nc1nc(Nc2cccc(Cl)c2)c2ncn(C(C)C)c2n1` [PURVALANOLA] has an IC50 of 4 nM.
